Values quoted from earlier work in patent publication US10092564B2, “Use of masitinib for treatment of an amyotrophic lateral sclerosis patient subpopulation” (AB SCIENCE, priority 2016, dated 2018).

Tested on: people with ALS
Settings: riluzole 100 mg, four randomized clinical trials, 1477 patients; cited from earlier work

In the case of `Nc1nc2ccc(OC(F)(F)F)cc2s1` [riluzole, 6-(trifluoromethoxy)benzothiazol-2-amine], the “prolongation of median survival with respect to participants taking placebo” value is listed as 2 to 3 months.
